Experimental findings from US9821070B2 (OPKO Biologics Ltd., priority 2012, dated 2017) are described below.

By UniProt entry, the sequences of proteins in these tests, tags left out. Residues count along the entry.
UniProt P43220, 24-463: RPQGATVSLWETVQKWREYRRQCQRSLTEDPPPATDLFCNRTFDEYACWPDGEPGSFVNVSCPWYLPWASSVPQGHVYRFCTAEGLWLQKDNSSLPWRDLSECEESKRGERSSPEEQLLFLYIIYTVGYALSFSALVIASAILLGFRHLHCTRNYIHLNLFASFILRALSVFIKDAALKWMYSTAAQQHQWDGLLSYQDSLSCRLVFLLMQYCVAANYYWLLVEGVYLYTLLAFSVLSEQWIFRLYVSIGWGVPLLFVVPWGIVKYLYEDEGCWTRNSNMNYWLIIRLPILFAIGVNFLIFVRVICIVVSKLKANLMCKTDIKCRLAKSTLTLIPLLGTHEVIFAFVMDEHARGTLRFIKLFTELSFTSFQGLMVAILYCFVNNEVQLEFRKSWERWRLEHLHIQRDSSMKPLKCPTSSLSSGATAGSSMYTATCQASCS

A short description of series [1]: Plasma concentrations and pharmacokinetics of MOD-6031 and its hydrolyzed products by LC-MS/MS. It is filed as in vivo, ob/ob mice.
The target in a further series is GLP-1 receptor (Homo sapiens, UniProt P43220). Particulars: cAMP Hunter CHO-K1 GLP1R cells.
Where [2] appears, read: dose 1000 nmol/kg MOD-6031 (PEG-FMS 1515 nmol/kg).
Where [3] appears, read: dose 3000 nmol/kg MOD-6031 (PEG-FMS 4545 nmol/kg).
The mark [4] stands for this setting: dose 6000 nmol/kg MOD-6031 (PEG-FMS 9090 nmol/kg).
Where [5] appears, read: single SC injection of MOD-6031 3000 nmol/kg, 105 mg/kg (PEG-FMS 4545 nmol/kg).
[6] abbreviates: single SC injection of MOD-6031 6000 nmol/kg, 210 mg/kg (PEG-FMS 9090 nmol/kg).

Broadly, the EC50 is the concentration at which the effect is half-maximal. Turning to Oxyntomodulin [OXM], the “Increased by (Day 33 / Day 2)” value was found to be 1.29 in series [1] (MOD-6031 1000 nmol/kg (PEG-FMS 1515)), 1.00 in series [1] (MOD-6031 3000 nmol/kg (PEG-FMS 4545)) and 0.97 in series [1] (MOD-6031 6000 nmol/kg (PEG-FMS 9090)). Further, the “accumulation over the study (Day 33 vs day 2)” value in series [1] (MOD-6031 twice a week) is recorded as “not accumulated”. In addition, in series [1] (Table 8, dose 6000 nmol/kg MOD-6031 (PEG-FMS 9090 nmol/kg)), the T1/2 turned out to be 11.8 h. In addition, the “AUC0-t/D (molar basis)” value in series [1] (setting [2]) is given as 0.716 (hr*nmol/mL)/(μmol/kg); in series [1] (setting [3]), 0.697 (hr*nmol/mL)/(μmol/kg); in series [1] (setting [4]), 0.692 (hr*nmol/mL)/(μmol/kg). Further, the “Cmax/D (molar basis)” value is given as 0.0357 (nmol/mL)/(μmol/kg) in series [1] (setting [2]), 0.0273 (nmol/mL)/(μmol/kg) in series [1] (setting [3]) and 0.0280 (nmol/mL)/(μmol/kg) in series [1] (setting [4]). Further, the Cmax/D is 0.0357 (μg/mL)/(mg/kg) in series [1] (single SC injection of MOD-6031 1000 nmol/kg, 34.9 mg/kg (PEG-FMS 1515 nmol/kg)); 0.0274 (μg/mL)/(mg/kg) in series [1] (setting [5]); 0.0280 (μg/mL)/(mg/kg) in series [1] (setting [6]). Further, the “AUC0-∞/D” value in series [1] (setting [5]) was 0.705 (hr*μg/mL)/(mg/kg); in series [1] (setting [6]) it was 0.694 (hr*μg/mL)/(mg/kg). Further, the response at GLP-1 receptor was half-maximal at 1.38 ± 0.68 nM (EC50).
